# Measured values published in ChEMBL document CHEMBL3112561, “Small molecule disruptors of the glucokinase-glucokinase regulatory protein interaction: 2. Leveraging structure-based drug design to identify analogues with improved pharmacokinetic profiles” (J Med Chem, 2014).
# pIC50: −log10 of the molar value.
# Biological target: T1, Glucokinase regulatory protein (Homo sapiens, UniProt Q14397)
# T1 sequence (Q14397 whole entry): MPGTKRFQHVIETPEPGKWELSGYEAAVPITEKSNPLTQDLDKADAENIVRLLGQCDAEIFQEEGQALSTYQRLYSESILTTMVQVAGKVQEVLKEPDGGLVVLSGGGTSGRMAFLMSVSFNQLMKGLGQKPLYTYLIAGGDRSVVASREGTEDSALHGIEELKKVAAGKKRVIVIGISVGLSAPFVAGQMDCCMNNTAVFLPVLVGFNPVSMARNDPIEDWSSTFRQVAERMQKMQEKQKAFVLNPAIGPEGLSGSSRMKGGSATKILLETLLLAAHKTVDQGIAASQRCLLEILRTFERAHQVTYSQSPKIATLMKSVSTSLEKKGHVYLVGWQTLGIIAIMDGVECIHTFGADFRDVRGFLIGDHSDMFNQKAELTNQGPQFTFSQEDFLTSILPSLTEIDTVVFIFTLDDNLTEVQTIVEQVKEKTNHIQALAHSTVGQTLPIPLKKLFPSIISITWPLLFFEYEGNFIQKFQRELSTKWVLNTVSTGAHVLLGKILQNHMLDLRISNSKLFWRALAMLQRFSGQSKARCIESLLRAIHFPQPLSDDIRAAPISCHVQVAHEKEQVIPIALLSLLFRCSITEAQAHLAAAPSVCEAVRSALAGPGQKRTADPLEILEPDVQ
# Assay: Inhibition of fluorescein-labeled human GK interaction with biotin-labeled human GKRP incubated for 20 mins prior to addition of fluorescein-labeled GK measured after 2 to 4 hrs by Alpha Screen assay
row,pIC50,SMILES
1,6.50,Nc1ncc(S(=O)(=O)N2CCN(c3ccc(C(O)(C(F)(F)F)C(F)(F)F)cc3)CC2)cn1
2,6.35,Nc1ccccc1S(=O)(=O)N1CCN(c2ccc(C(O)(C(F)(F)F)C(F)(F)F)cc2)CC1
3,7.06,Nc1ccc(S(=O)(=O)N2CCN(c3ccc(C(O)(C(F)(F)F)C(F)(F)F)cc3)CC2)cn1
